Biological target: Histone-lysine N-methyltransferase EZH2 (Homo sapiens, UniProt Q15910)
Test: Inhibition of EZH2 (unknown origin)

Protein sequences, listed by entry. Tags and fused reporters are not part of them.
UniProt Q15910, whole entry: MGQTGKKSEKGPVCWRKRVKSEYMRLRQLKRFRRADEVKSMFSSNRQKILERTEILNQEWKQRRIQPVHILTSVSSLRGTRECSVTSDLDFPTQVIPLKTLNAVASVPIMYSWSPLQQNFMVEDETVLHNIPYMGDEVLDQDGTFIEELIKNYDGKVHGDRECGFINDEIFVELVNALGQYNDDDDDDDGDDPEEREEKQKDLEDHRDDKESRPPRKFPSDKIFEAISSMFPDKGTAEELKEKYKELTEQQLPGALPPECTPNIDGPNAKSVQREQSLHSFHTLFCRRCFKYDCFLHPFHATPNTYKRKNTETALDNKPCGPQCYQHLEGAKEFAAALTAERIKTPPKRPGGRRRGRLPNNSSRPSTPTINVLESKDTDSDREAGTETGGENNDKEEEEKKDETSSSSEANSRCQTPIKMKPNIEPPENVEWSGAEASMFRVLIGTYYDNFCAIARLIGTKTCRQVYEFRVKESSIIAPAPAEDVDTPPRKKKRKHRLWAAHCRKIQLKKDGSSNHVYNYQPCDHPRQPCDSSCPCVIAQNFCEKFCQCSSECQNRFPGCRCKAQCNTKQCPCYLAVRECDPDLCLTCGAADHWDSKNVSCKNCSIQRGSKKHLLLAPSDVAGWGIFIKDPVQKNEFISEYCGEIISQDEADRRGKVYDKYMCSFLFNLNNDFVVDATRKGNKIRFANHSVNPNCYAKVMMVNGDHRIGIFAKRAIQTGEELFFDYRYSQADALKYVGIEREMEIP

With `CCCc1cc(C)[nH]c(=O)c1CNC(=O)c1cc(-c2ccnc(N3CCN(C)CC3)c2)cc2c1cnn2C(C)C` the IC50 was 1.2 nM.

— ChEMBL document CHEMBL5136992, “Fascinating Transformation of SAM-Competitive Protein Methyltransferase Inhibitors from Nucleoside Analogues to Non-Nucleoside Analogues” (J Med Chem, 2022)
